Laboratory results from PMC2809336, “Antidepressant Interactions with the NMDA NR1-1b Subunit” (Journal of Biophysics, 2008).

Target: T1, NMDA NR1-1b S1S2 domain (Rattus norvegicus, UniProt P35439)
T1 construct: (His)8-TSG-LVPRG(thrombin cut site)-S1(394-544)-GT-S2(663-800); (His)8-TSG-LVPRG (His8 tag with thrombin cut site) (N); made in house; host or cells: E. coli Origami B(DE3)
Assay: Extrinsic ANS fluorescence
Assay type: binding
Settings: ANS 1 : 1 with 5.29 μM NR1-1b S1S2, excitation 380 nm; drug concentrations as in Figure 4
Experimental: Extrinsic fluorescence studies were performed in a Cary Ec-lipse fluorometer at 25°C. All emission scans were acquired from 400 to 600 nm after excitation at 380 nm with 20 nm slit widths for emission and excitation in a 10 mm-path-length cell. Before data acquisition, samples were incubated for thirty seconds in the sample holder at 25°C. Blanks were collected both for the antidepressants and the NR1-1b S1S2 domain. Three emission spectra of identicallyprepared samples were averaged for each plot. 8-Anilino-1-naphthalenesulfonic acid (ANS, TCI America), in a 1 : 1 molar ratio, was added to 5.29 μM of the NR1-1b S1S2 domain premixed with antidepressant (at final concentrations as above for intrinsic quenching studies in addition to the SSRIs fluoxetine (8.62 μM) and fluvoxamine (2.81 mM) and the SNRI venlafaxine (29.07 μM)). As with all intrinsic assays, total methanol concentration was kept at 1.8%. Plots of intensity versus wavelength were constructed from averaged emission spectra.

ANS emission spectrum of the NR1-1b S1S2 complex versus ANS bound to apo S1S2 (binding): significantly different
Structure (SMILES): CNCCCN1c2ccccc2CCc2ccccc21 [desipramine]
